Tests used:
[1] = FibroTest and ActiTest scores in DILI cases; type: in vivo, human; details: DILI cases attributed to the drug, at inclusion
[2] = Serum biochemical markers (ActiTest components, AST) in adjudicated DILI cases grouped by responsible drug; details: DILI cases attributed to the drug, at inclusion

With gabapentin/pregabalin the FibroTest median [1] was 0.92, the ApoA1 median [2] was 0.54 g/L and the BILI median [2] was 120 µmol/L. It also gave an HAPTO median [2] of 0.69 g/L.

From patent US11965894B2, “Method of diagnosis of drug induced liver injury” (BIOPREDICTIVE, priority 2017, dated 2024)
